This passage reports IC50 results from PubChem BioAssay AID492959 (The Scripps Research Institute Molecular Screening Center, 2010).

For the assay, the system named is E. coli AddAB+ with T4 gene 2 phage, OD growth. In words: inhibition of AddAB recombination enzyme – absorbance, E. coli, T4 phage, dose response (AID 492959).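 Further: growth read as OD600 after 18 h at 37 °C; AddAB inhibitors let the phage kill the cells so OD falls.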 As to conditions: AddAB enzyme is from H. pylori; T4 phage with nonsense-mutated gene 2.

Active and inactive are the calls of the source.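 How the source made its calls: active means IC50 of 10 µM or lower; inactive means IC50 above 10 µM.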

For `Cc1cc(NS(=O)(=O)c2ccc(N)cc2)no1`, the IC50 (usually the point on the concentration scale where inhibition reaches its midpoint) is inactive: 36.2 µM.
